Reference: ChEMBL document CHEMBL1221209

Columns and labels:
Settings in all cases: route intraperitoneal, strain Swiss Webster
[1] = test system: Brain; assay: Disruption of endocannabinoid metabolism in Swiss Webster mouse brain assessed as unsaturated C20:4 fatty acid level per gram of tissue at 4 mg/kg, ip after 4 hrs
[2] = test system: Brain; assay: Disruption of endocannabinoid metabolism in Swiss Webster mouse brain assessed as saturated C18:0 fatty acid level per gram of tissue at 4 mg/kg, ip after 4 hrs
[3] = test system: Brain; assay: Disruption of endocannabinoid metabolism in Swiss Webster mouse brain expressing KIAA1363 gene assessed as saturated C24:0 fatty acid level per gram of tissue at 100 mg/kg, ip after 4 hrs
[4] = test system: Brain; assay: Disruption of endocannabinoid metabolism in Swiss Webster mouse brain expressing KIAA1363 gene assessed as anandamide level per gram of tissue at 100 mg/kg, ip after 4 hrs
[5] = test system: Brain; assay: Disruption of endocannabinoid metabolism in KIAA1363 deficient Swiss Webster mouse brain assessed as saturated C20:0 fatty acid level per gram of tissue at 100 mg/kg, ip after 4 hrs
[6] = test system: Brain; assay: Disruption of endocannabinoid metabolism in Swiss Webster mouse brain expressing KIAA1363 gene assessed as unsaturated C24:1 fatty acid level per gram of tissue at 100 mg/kg, ip after 4 hrs
[7] = test system: Brain; assay: Disruption of endocannabinoid metabolism in KIAA1363 deficient Swiss Webster mouse brain assessed as unsaturated N-oleoyl-ethanolamine level per gram of tissue at 100 mg/kg, ip after 4 hrs
[8] = test system: Brain; assay: Disruption of endocannabinoid metabolism in Swiss Webster mouse brain expressing KIAA1363 gene assessed as saturated C20:0 fatty acid level per gram of tissue at 100 mg/kg, ip after 4 hrs
[9] = test system: Brain; assay: Disruption of endocannabinoid metabolism in KIAA1363 deficient Swiss Webster mouse brain assessed as unsaturated C18:2 fatty acid level per gram of tissue at 100 mg/kg, ip after 4 hrs

SMILES | Activity [1] [pmol/g] | Activity [2] [pmol/g] | Activity [3] [pmol/g] | Activity [4] [nmol/g] | Activity [5] [pmol/g] | Activity [6] [pmol/g] | Activity [7] [pmol/g] | Activity [8] [pmol/g] | Activity [9] [pmol/g]
CCOP(=O)(OCC)Oc1nc(Cl)c(Cl)cc1Cl | 11 | 576 | – | – | – | – | – | – | –
CCOP(=S)(OCC)Oc1nc(Cl)c(Cl)cc1Cl | – | – | 1.9 | 0.018 | 154 | 142 | 880 | 145 | 26
